Values quoted from earlier work in patent US20220152100A1, “METHODS FOR CONTROLLED ACTIVATION OR ELIMINATION OF THERAPEUTIC CELLS” (Bellicum Pharmaceuticals, Inc., priority 2014, published 2022).

By UniProt entry, the sequences of proteins in these tests, tags left out. Where a name states a change or a piece, a line headed by the entry shows the natural chain unless it says otherwise.
UniProt P62942: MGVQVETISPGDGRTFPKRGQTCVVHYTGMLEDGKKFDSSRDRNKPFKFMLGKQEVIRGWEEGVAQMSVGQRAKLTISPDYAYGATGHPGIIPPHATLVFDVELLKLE

What was measured:
[1] = biological target: wt FRB (K2095 T2098 W2101) (Homo sapiens, UniProt P42345+P62942); conditions: cited from earlier work
FRB-PLF = FRB-PLF (Homo sapiens, UniProt P42345+P62942, K2095P/T2098L/W2101F); conditions: cited from earlier work

Question: For R-Isopropoxyrapamycin, which EC50 [1] is on record?
Answer: The EC50 was 0.3 µM.

Question: And the EC50 (FRB-PLF)?
Answer: The EC50 was 0.0085 µM.
